Read-outs that look alike come from different tables or passages of the source.
Key:
[1] = type: physicochemical; parameters: key: 1= fibrils; 0= aggregates (micelle); 0.5 = aggregates and fibrils; -1 = nothing obersved
Experimental: For ATR FT–IR spectroscopy measurements, 200 µL of the respective 1 mg/mL PNF solution was lyophilized and the resulting powder used for measurement. All spectra were recorded on a Bruker Tensor 27 spectrometer with a diamond crystal as ATR element (PIKE MiracleTM, spectral resolution 2 cm^-1). Every sample was measured with 64 scans. Data were analyzed with OriginLab software and calculation of β–sheet content was conducted according to a previous report. TEM. For TEM measurements 5 µL of PNF fibrils (1 mg/mL) were placed on copper grids coated with carbon and formvar layer (300 mesh, Plano GmbH). […] 10 μL of the filtrate and non-filtered DMSO samples were submitted in a black UV Star® 384 microliter well–plates (Greiner bio–one) and 3 μL of the fluorescamine solution (10 mg/mL, DMSO) was added to measure the fluorescence enhancement. After 20 min of incubation at RT, fluorescence was recorded on an Infinite® M1000 PRO microplate reader (Tecan) at λem = 470 nm upon excitation at λex = 365 nm with 10 nm bandwidths and multiple reads per well (3×3). […] All values were calculated as n-fold fluorescence enhancement (DMSO only as a reference was set to 1). The conversion rate CR was defined according to the equation Eq. (3).3 CR=100−100×fluorescenceintensityfiltrate/fluorescenceintensityoriginal[%] […]

[2] = Zeta-potential measurement; type: physicochemical
Experimental: (§1) 4 µL of 1 mg/mL peptide fibrils solution is added to a 20 µL, 50 µM ThT–solution in PBS. The mixture is incubated for 15 min at RT to allow binding of ThT dye with β–sheet rich structures. For reference PBS (4 µL) was added instead of peptide fibril solution. The samples were placed in black UV Star® 384 microliter well–plates (Greiner bio–one). Fluorescence spectra were recorded on an Infinite® M1000 PRO microplate reader (Tecan) at λem = 488 nm upon excitation at λex = 440 nm with 10 nm bandwidths and multiple reads per well (3×3). Measurements were repeated in triplicates and averaged with standard deviation. […] Zeta-Potential. For the determination of the surface charge of aggregated peptides zeta-potential measurements were conducted with a Zetasizer Nano ZS, Malvern Instruments. Unless stated otherwise the peptides were dissolved from DMSO (10 mg/mL) in PBS (pH 7.4) to concentration of 1 mg/mL and incubated for 1d at RT. Just before the measurement the 60 µL of the peptides were further diluted in 600 µL KCl (aq, 1 mM) in a 1 mL disposable folded capillary cells (DTS–1060, Zetasizer Nano series, Malvern). The zeta potential of the peptides was derived from the electrophoretic mobility based on the Smoluchowski formula. All measurements were averaged over two individually performed experiments and conducted in triplicates for each sample. Aggregate analysis. […] Furthermore, fluorescence microscopy was conducted by staining 1 µL preformed fibrils (1 mg/mL) with 9 µL ThT (50 µM). Brightfield microscopy was performed simultaneously to evaluate aggregation also for non ThT-active fibrils. The measurements were performed on a Leica DMi8 microscope with 10x air objective and equipped with a Leica MC170 HD camera with a filter setting λem = 527/30 nm upon excitation at λex = 480/40 nm) and processed with the Leica LASX software. To quantify size and number of microscopic aggregation of particles > 10 µm^2 at least 3 independently measured images were analyzed via the 3D object counter analysis tool of ImageJ, v 1.53f51. Sum–frequency generation. The SFG experiments were carried out with a femtosecond Ti: Sapphire amplified laser system (Spitfire Ace, Spectra–Physics, 800 nm, 40 fs, 1 kHz) with 5 W output power. We used 2 W to pump an optical parametric amplifier (TOPAS, light conversion) with a non–collinear difference frequency generation stage to generate broadband IR pulses. Another 1 W of the laser output passed through an etalon to generate narrowband visible pulses (10 cm^-1). The incident angles of the visible and IR beams were 36° and 41° with respect to the surface normal, respectively. The visible (13 µJ) and IR (5 µJ) pulses were overlapped spatially and temporally at the sample position. Subsequently, the generated SFG pulse was guided into a spectrograph (Acton SP 300i, Princeton Instruments), and detected with an EMCCD (Newton, Andor Technology). To avoid IR absorption of water vapor, we purged N2 for the measurement. All spectra were collected in the ssp (denoting s-, s- and p-polarized SFG, visible and IR, respectively) polarization combination. The spectra were normalized to the non–resonant signal taken from z–cut quartz after subtracting a background spectrum. […]

[3] = Conversion rate (CR) assay with fluorescamine; type: physicochemical
Experimental: For ATR FT–IR spectroscopy measurements, 200 µL of the respective 1 mg/mL PNF solution was lyophilized and the resulting powder used for measurement. All spectra were recorded on a Bruker Tensor 27 spectrometer with a diamond crystal as ATR element (PIKE MiracleTM, spectral resolution 2 cm^-1). Every sample was measured with 64 scans. Data were analyzed with OriginLab software and calculation of β–sheet content was conducted according to a previous report. TEM. For TEM measurements 5 µL of PNF fibrils (1 mg/mL) were placed on copper grids coated with carbon and formvar layer (300 mesh, Plano GmbH). […] 10 μL of the filtrate and non-filtered DMSO samples were submitted in a black UV Star® 384 microliter well–plates (Greiner bio–one) and 3 μL of the fluorescamine solution (10 mg/mL, DMSO) was added to measure the fluorescence enhancement. After 20 min of incubation at RT, fluorescence was recorded on an Infinite® M1000 PRO microplate reader (Tecan) at λem = 470 nm upon excitation at λex = 365 nm with 10 nm bandwidths and multiple reads per well (3×3). […] All values were calculated as n-fold fluorescence enhancement (DMSO only as a reference was set to 1). The conversion rate CR was defined according to the equation Eq. (3).3 CR=100−100×fluorescenceintensityfiltrate/fluorescenceintensityoriginal[%]

[4] = type: physicochemical
Experimental: 4 µL of 1 mg/mL peptide fibrils solution is added to a 20 µL, 50 µM ThT–solution in PBS. The mixture is incubated for 15 min at RT to allow binding of ThT dye with β–sheet rich structures. For reference PBS (4 µL) was added instead of peptide fibril solution. The samples were placed in black UV Star® 384 microliter well–plates (Greiner bio–one). Fluorescence spectra were recorded on an Infinite® M1000 PRO microplate reader (Tecan) at λem = 488 nm upon excitation at λex = 440 nm with 10 nm bandwidths and multiple reads per well (3×3). Measurements were repeated in triplicates and averaged with standard deviation. […] Zeta-Potential. For the determination of the surface charge of aggregated peptides zeta-potential measurements were conducted with a Zetasizer Nano ZS, Malvern Instruments. Unless stated otherwise the peptides were dissolved from DMSO (10 mg/mL) in PBS (pH 7.4) to concentration of 1 mg/mL and incubated for 1d at RT. Just before the measurement the 60 µL of the peptides were further diluted in 600 µL KCl (aq, 1 mM) in a 1 mL disposable folded capillary cells (DTS–1060, Zetasizer Nano series, Malvern). The zeta potential of the peptides was derived from the electrophoretic mobility based on the Smoluchowski formula. All measurements were averaged over two individually performed experiments and conducted in triplicates for each sample. Aggregate analysis. […] Furthermore, fluorescence microscopy was conducted by staining 1 µL preformed fibrils (1 mg/mL) with 9 µL ThT (50 µM). Brightfield microscopy was performed simultaneously to evaluate aggregation also for non ThT-active fibrils. The measurements were performed on a Leica DMi8 microscope with 10x air objective and equipped with a Leica MC170 HD camera with a filter setting λem = 527/30 nm upon excitation at λex = 480/40 nm) and processed with the Leica LASX software. To quantify size and number of microscopic aggregation of particles > 10 µm^2 at least 3 independently measured images were analyzed via the 3D object counter analysis tool of ImageJ, v 1.53f51. Sum–frequency generation. The SFG experiments were carried out with a femtosecond Ti: Sapphire amplified laser system (Spitfire Ace, Spectra–Physics, 800 nm, 40 fs, 1 kHz) with 5 W output power. We used 2 W to pump an optical parametric amplifier (TOPAS, light conversion) with a non–collinear difference frequency generation stage to generate broadband IR pulses. Another 1 W of the laser output passed through an etalon to generate narrowband visible pulses (10 cm^-1). The incident angles of the visible and IR beams were 36° and 41° with respect to the surface normal, respectively. The visible (13 µJ) and IR (5 µJ) pulses were overlapped spatially and temporally at the sample position. Subsequently, the generated SFG pulse was guided into a spectrograph (Acton SP 300i, Princeton Instruments), and detected with an EMCCD (Newton, Andor Technology). To avoid IR absorption of water vapor, we purged N2 for the measurement. All spectra were collected in the ssp (denoting s-, s- and p-polarized SFG, visible and IR, respectively) polarization combination. The spectra were normalized to the non–resonant signal taken from z–cut quartz after subtracting a background spectrum.
1. Remarks on experimental parameters and bioinformatic descriptors

[5] = Turbidity, derived count rate of scattered light; type: physicochemical; settings: for Zeta Count Rate / kcps: derived count rate of scattered light
Experimental: as §1
ways to determine turbidity of samples, this can be via transmittance and via scattering. Transmittance […]
as it is an easy and fast method.10,11 However, transmittance contributes not only from µm-sized aggregates but also nm-sized aggregates such as distinct fibrils, which makes hard to distinguish between fibril formation and micrometer sized aggregation. Although dynamic light scattering is a frequently applied method for determination of particle size, it cannot be conducted in solutions with anisotropic aggregates in micrometer size range, since the Stokes-Einstein relation is only applicable for homogeneous […] spherical particles.12 Further models describing scattering intensity and […]

## QCKAKAQANM [CK23]
[1]
  TEM: 1= fibrils, 0= aggregates (micelle), 0.5 = aggregates and fibrils, -1 = nothing obersved, STD prep: 0.5
[2]
  Zeta Pot. / mV: -8.357 mV
  Zeta category ( +1 = if > 4 mV;-1 = if < -4 mV; 0 = -4mV to 4 mV): -1 (-1 = if < -4 mV)
[2]; category from zeta potential
  Zeta category ( +1 = if > 4 mV;-1 = if < -4 mV; 0 = -4mV to 4 mV): -1 (-1 = if < -4 mV)
[2]; mean, Std Zeta in next column
  Zeta Pot. / mV: -8.357 mV
[2]; mean, Std in separate column
  Zeta Pot. / mV: -8.357 mV
[2]; zeta potential of peptide, Fig S15 source data
  Zeta-pot. / mV: -8.357 mV
[3]
  Conversion Rate / %: 55.94%
[3]; fluorescamine assay
  Conversion Rate / %: 55.94%
[4]; ThT fluorescence relative to blank (42.1851851851852 a.u.)
  Tht rel to blank (42.1851851851852): 1.382
[4]; ThT fluorescence relative to blank, blank = 42.1851851851852
  Tht rel to blank (42.1851851851852): 1.382
[4]; category 1 / 0
  Tht category (> 1.5 to blank = +): 0 (ThT-inactive (N-Fold <2))
[4]; category 1/0
  Tht category (> 1.5 to blank = +): 0 (ThT-inactive (N-Fold <2))
[4]; relative to blank 42.1851851851852 a.u.
  Tht rel to blank (42.1851851851852): 1.382
[5]; category 1 / 0, no key given
  Zeta Count Rate Category: 1
[5]; category 1/0, no key printed
  Zeta Count Rate Category: 1
[5]; category 1 or 0 from count rate, key not given
  Zeta Count Rate Category: 1
[5]
  Zeta Count Rate / kcps: 204.1 kcps
[5]; mean, std deviation in next column
  Zeta Count Rate / kcps: 204.1 kcps
[5]; mean, std deviation in separate column
  Zeta Count Rate / kcps: 204.1 kcps

From article PMC10447463, “Data-mining unveils structure–property–activity correlation of viral infectivity enhancing self-assembling peptides” (Nature Communications, 2023)
